Our source for the EC values is ChEMBL document CHEMBL5137096, “Antiviral Profiling of C-18- or C-19-Functionalized Semisynthetic Abietane Diterpenoids” (J Nat Prod, 2022).

Molecules are shown by their SMILES.

This assay deals with dengue virus type 2. As to the kind of experiment: Antiviral activity against DENV2 infected in hamster BHK-21 cells assessed as inhibition of plaque formation by measuring reduction in PFU per well incubated for 6 days by crystal violet staining based assay. Conditions: time 6 day. It counts as functional.

As for `NC(=O)c1ncn([C@@H]2O[C@H](CO)[C@@H](O)[C@H]2O)n1` [RIBAVIRIN], the EC was determined as 5 µg/mL.
